In patent US11940444B2, “Method of stabilizing molecules without refrigeration using water soluble polymers and applications thereof in performing chemical reactions” (priority 2013, dated 2024):

Assay: Fluorescence intensity-based thermal unfolding of HSA
Type: physicochemical
Conditions: pullulan film vs solution, tryptophan emission intensity
Procedure: Human serum albumin (60 pM final concentration) was dissolved into either 100 mM Tris-HCl (pH 7.5) or 100 mM Tris-HCl containing 10% pullulan. These pullulan solutions, with or without HSA, were carefully pipetted onto the quartz slides (500 μL/slide) and allowed to dry overnight at 21° C. and 48% RH in order to produce the film samples.
Fluorescence measurements were acquired using a Cary Eclipse fluorescence spectrophotometer. Solution samples were measured in quartz cuvettes and continuously stirred throughout the experiments. […]
For fluorescence emission spectra, samples were excited at 295 nm (to ensure that the light was absorbed almost entirely by the lone tryptophanyl residue) and emission was collected at 310-450 nm in 1 nm increments, using a 5-nm bandpass for both excitation and emission paths and an integration time of 0.1 s. […]
For thermal denaturation studies, the temperature was raised in ˜5° C. increments from 20° C. to 90° C. and allowed to equilibrate at each temperature for at least 5 min. The temperature in the cuvette was measured directly with a thermistor probe. […] Emission scans are measured in relative fluorescence units, RFU, and all values are reported as the average of three separate samples.

Substance: Human serum albumin
- increase of unfolding temperature: 20 °C
